This is a selection; strong and weak results do not stand in their true shares. Records with an inconclusive call do not appear. The source made the active and inactive calls. How the source made its calls, unless noted: active means hit-call score of the fitted dose curve at least 0.9, where 1 is the maximum; inactive means score below 0.9.
What was measured:
[1] = ATG_PPRE_CIS: Attagene CIS-FACTORIAL HepG2 Assay for human Peroxisome Proliferator-activated Response Element (PPRE) (AID 2282958); conditions: HepG2 PPRE cis-element reporter, Attagene transcription factor profiling; actives raise or lower the signal
[2] = ATG_RORE_CIS: Attagene CIS-FACTORIAL HepG2 Assay for human RAR-related Orphan Receptor Element (RORE) (AID 2282959); conditions: HepG2 Attagene cis-factorial RORE reporter, mRNA; actives raise or lower the signal
[3] = target: Bile acid receptor (Homo sapiens) (UniProt Q96RI1); experiment: OT_FXR_FXRSRC1_0480: Odyssey Thera (OT) 8-hour HEK293T Protein-Complementation Assay for Farnesoid X receptor/SRC-1 Co-activator (AID 2283383; active means hit-call score of the fitted dose curve at least 0.9, where 1 is the maximum)
Procedure, shortened: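 Human kidney HEK293T cells carried FXR/SRC-1 fragment-complementation constructs. Compounds were added and incubated 8 h. Reporter reassembly upon receptor–co-activator interaction was then quantified by fluorescence, with curves fitted in the positive direction relative to DMSO.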

Sequences of proteins named here, by UniProt entry; tags and fusion partners are left off. A change or cut given only in a name is not applied to a line headed by its entry.
UniProt Q96RI1: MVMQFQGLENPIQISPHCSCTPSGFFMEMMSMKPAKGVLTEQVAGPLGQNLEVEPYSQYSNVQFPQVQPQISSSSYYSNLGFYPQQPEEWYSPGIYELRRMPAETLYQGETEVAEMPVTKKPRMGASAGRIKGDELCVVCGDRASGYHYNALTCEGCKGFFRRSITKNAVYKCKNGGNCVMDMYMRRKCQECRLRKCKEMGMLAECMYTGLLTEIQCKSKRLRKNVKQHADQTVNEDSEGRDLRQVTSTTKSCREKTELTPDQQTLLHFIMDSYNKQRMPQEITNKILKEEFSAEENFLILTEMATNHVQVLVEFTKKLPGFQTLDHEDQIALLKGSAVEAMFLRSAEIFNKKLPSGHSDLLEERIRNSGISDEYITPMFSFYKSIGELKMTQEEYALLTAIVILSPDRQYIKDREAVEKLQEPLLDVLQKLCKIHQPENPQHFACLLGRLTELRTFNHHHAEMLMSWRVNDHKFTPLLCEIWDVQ

[4] = target: Bile acid receptor (Homo sapiens) (UniProt Q96RI1); experiment: OT_FXR_FXRSRC1_1440: Odyssey Thera (OT) 24-hour HEK293T Protein-Complementation Assay for Farnesoid X receptor/SRC-1 Co-activator (AID 2283384; active means hit-call score of the fitted dose curve at least 0.9, where 1 is the maximum)
Procedure, shortened: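 Compounds are applied to human kidney HEK293T cells expressing bait and prey fused to reporter protein fragments; after 24 h, reconstituted reporter fluorescence is measured. Activity is fitted as signal gain over DMSO.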

SMILES: C[C@H](CCC(=O)NCC(=O)O)[C@H]1CC[C@H]2[C@@H]3[C@H](O)C[C@@H]4C[C@H](O)CC[C@]4(C)[C@H]3C[C@H](O)[C@]12C
- outcome [1]: inactive

SMILES: CCCCCCCCCCO
- outcome [1]: inactive

SMILES: C=C[Si](C)(C)O[Si](C)(C)C=C
- outcome [1]: inactive

SMILES: CCCCCCC(C)(C)S
- outcome [1]: inactive

SMILES: OC[C@H]1O[C@@H]2O[C@H]3[C@H](O)[C@@H](O)[C@@H](O[C@H]4[C@H](O)[C@@H](O)[C@@H](O[C@H]5[C@H](O)[C@@H](O)[C@@H](O[C@H]6[C@H](O)[C@@H](O)[C@@H](O[C@H]7[C@H](O)[C@@H](O)[C@@H](O[C@H]8[C@H](O)[C@@H](O)[C@@H](O[C@H]9[C@H](O)[C@@H](O)[C@@H](O[C@H]1[C@H](O)[C@H]2O)O[C@@H]9CO)O[C@@H]8CO)O[C@@H]7CO)O[C@@H]6CO)O[C@@H]5CO)O[C@@H]4CO)O[C@@H]3CO
- outcome [1]: inactive

SMILES: CCCCc1nc2cccnc2n1Cc1ccc(-c2ccccc2-c2nnn[nH]2)cc1
- AC50 [1]: active: 2.56 µM

SMILES: CCOCCO
- outcome [1]: inactive

SMILES: CCC(=O)OCCOc1ccccc1
- outcome [1]: inactive

SMILES: CCCCCCO
- outcome [1]: inactive

SMILES: CCCCCCCCC(CO)CCCCCC (stereo unspecified)
- outcome [1]: inactive

SMILES: CCCCCOC(=O)COc1cc(N2C(=O)C3=C(CCCC3)C2=O)c(F)cc1Cl
- outcome [1]: inactive

SMILES: C=C(C)C(=O)OCCC(F)(F)C(F)(F)C(F)(F)C(F)(F)C(F)(F)C(F)(F)F
- outcome [1]: inactive

SMILES: CC(C)C[C@H]1C(=O)N2CCC[C@H]2[C@]2(O)O[C@](NC(=O)[C@@H]3C=C4c5cccc6[nH]c(Br)c(c56)C[C@H]4N(C)C3)(C(C)C)C(=O)N12
- outcome [1]: inactive

SMILES: OCC(CO)(CO)COCC(CO)(CO)CO
- outcome [1]: inactive

SMILES: CN(C)C(=O)Nc1ccc(Oc2ccc(Cl)cc2)cc1
- outcome [1]: inactive

SMILES: N=C1N=C(N)c2ccccc21
- outcome [1]: inactive

SMILES: CCOC(=O)CCCCCCCCC(=O)OCC
- outcome [1]: inactive

SMILES: Cc1cccnc1
- outcome [1]: inactive

SMILES: CCCCN(CCO)CCO
- outcome [1]: inactive

SMILES: CC(C)CCCCCOC(=O)CS
- outcome [1]: inactive

SMILES: O=[N+]([O-])c1ccc(C=Cc2ccc([N+](=O)[O-])cc2S(=O)(=O)O)c(S(=O)(=O)O)c1
- outcome [1]: inactive

SMILES: OC1OC[C@@H](O)[C@H](O)[C@H]1O (stereo partly specified)
- outcome [1]: inactive

SMILES: O=C(c1ccccc1)c1ccccc1O
- outcome [1]: inactive

SMILES: CC(=O)OCCOC(C)=O
- outcome [1]: inactive

SMILES: O=c1ccc2ccccc2o1
- outcome [1]: inactive

SMILES: CCCc1ccccc1O
- outcome [1]: inactive

SMILES: CCc1ccc2c(c1)C(=O)c1ccccc1C2=O
- outcome [1]: inactive

SMILES: O=C1c2ccccc2C(=O)c2c(O)ccc(O)c21
- outcome [1]: inactive

SMILES: C[C@]12C=CC(=O)C=C1CC[C@@H]1[C@@H]2C(=O)C[C@@]2(C)[C@H]1CC[C@]2(O)C(=O)CO
- outcome [1]: inactive

SMILES: O=C(OC[C@H]1O[C@@H](OC(=O)c2cc(O)c(O)c(OC(=O)c3cc(O)c(O)c(O)c3)c2)[C@H](OC(=O)c2cc(O)c(O)c(OC(=O)c3cc(O)c(O)c(O)c3)c2)[C@@H](OC(=O)c2cc(O)c(O)c(OC(=O)c3cc(O)c(O)c(O)c3)c2)[C@@H]1OC(=O)c1cc(O)c(O)c(OC(=O)c2cc(O)c(O)c(O)c2)c1)c1cc(O)c(O)c(OC(=O)c2cc(O)c(O)c(O)c2)c1
- outcome [1]: inactive

SMILES: O=CCc1ccccc1
- outcome [1]: inactive

SMILES: OCC#CCO
- outcome [1]: inactive

SMILES: OC[C@@H](O)[C@@H](O)[C@H](O)[C@@H](O)CO
- outcome [1]: inactive

SMILES: CC(C)c1ccc(C(=O)N=C(N)N)cc1S(C)(=O)=O
- outcome [1]: inactive

SMILES: O=C(O)c1cc(Cl)cc([N+](=O)[O-])c1Cl
- outcome [1]: inactive

SMILES: C=CC(=O)OCCC(=O)O
- outcome [1]: inactive

SMILES: CC(C)(C)C(=O)C=Cc1ccc(Cl)cc1
- AC50 [1]: active: 26.2 µM

SMILES: CC[N+](CC)(CC(=O)Nc1c(C)cccc1C)Cc1ccccc1 (tested in a mixture with another compound)
- outcome [1]: inactive

SMILES: COc1cc(C(C)C)c2c(c1)S(=O)(=O)N(COc1cc(=O)n3cccc(OCCN4CCCCC4)c3n1)C2=O
- AC50 [1]: active: 4.62 µM

SMILES: [Cl][Sc]([Cl])[Cl]
- outcome [1]: inactive
- outcome [2]: inactive

SMILES: O=S(=O)(O)c1ccc2cc(O)ccc2c1
- outcome [1]: inactive
- outcome [2]: inactive

SMILES: O=S(=O)(O)c1cccc2c(S(=O)(=O)O)cccc12
- outcome [1]: inactive
- outcome [2]: inactive

SMILES: NC(=O)c1nc(-c2cccc(-c3cc(F)ccc3OCC(F)(F)C(F)(F)F)c2)n[nH]1
- AC50 [1]: active: 8.43 µM
- AC50 [2]: active: 16.9 µM
- AC50 [3]: active: 11.7 µM
- outcome [4]: inactive

SMILES: C[N+](C)(C)CCCNS(=O)(=O)C(F)(F)C(F)(F)C(F)(F)C(F)(F)C(F)(F)C(F)(F)C(F)(F)C(F)(F)F
- outcome [1]: inactive
- outcome [2]: inactive

SMILES: O=C(O)C(=O)O
- outcome [1]: inactive
- outcome [2]: inactive

SMILES: C=CC(=O)NCOCC(C)C
- outcome [1]: inactive
- outcome [2]: inactive

SMILES: CCN(C(=O)c1cc(C)cc(OC[C@H](C)Nc2ccncc2)c1)C(C)C
- outcome [1]: inactive
- outcome [2]: inactive
- outcome [3]: inactive
- outcome [4]: inactive

SMILES: O=C(O)C[C@H](O)C[C@H](O)/C=C/c1c(C2CC2)nc2ccccc2c1-c1ccc(F)cc1
- outcome [2]: inactive

SMILES: OCCN(CCO)c1ccccc1
- outcome [1]: inactive
- outcome [2]: inactive

SMILES: Fc1c(F)c(F)c(Br)c(F)c1F
- outcome [2]: inactive

SMILES: CCCCCCCCCCCCCCCC(=O)O
- outcome [1]: inactive
- outcome [2]: inactive

SMILES: CN1CCN(Cc2cc(-c3ccc4[nH]c(=O)oc4c3)co2)[C@@H](c2ccc(F)cc2)C1
- outcome [1]: inactive
- outcome [2]: inactive

SMILES: COC(=O)c1ccc(OC)cc1
- outcome [1]: inactive
- outcome [2]: inactive

SMILES: O=S(=O)(O)c1ccc(O)c2ncccc12
- outcome [1]: inactive
- outcome [2]: inactive

Source: PubChem BioAssay (EPA / NIEHS)
